Measurements from ChEMBL document CHEMBL1152751, “2,5-Disubstituted tetrahydrofurans as selective serotonin re-uptake inhibitors” (Bioorg Med Chem, 2009).

Protein sequences, listed by entry. Tags and fused reporters are not part of them.
UniProt P23975, whole entry: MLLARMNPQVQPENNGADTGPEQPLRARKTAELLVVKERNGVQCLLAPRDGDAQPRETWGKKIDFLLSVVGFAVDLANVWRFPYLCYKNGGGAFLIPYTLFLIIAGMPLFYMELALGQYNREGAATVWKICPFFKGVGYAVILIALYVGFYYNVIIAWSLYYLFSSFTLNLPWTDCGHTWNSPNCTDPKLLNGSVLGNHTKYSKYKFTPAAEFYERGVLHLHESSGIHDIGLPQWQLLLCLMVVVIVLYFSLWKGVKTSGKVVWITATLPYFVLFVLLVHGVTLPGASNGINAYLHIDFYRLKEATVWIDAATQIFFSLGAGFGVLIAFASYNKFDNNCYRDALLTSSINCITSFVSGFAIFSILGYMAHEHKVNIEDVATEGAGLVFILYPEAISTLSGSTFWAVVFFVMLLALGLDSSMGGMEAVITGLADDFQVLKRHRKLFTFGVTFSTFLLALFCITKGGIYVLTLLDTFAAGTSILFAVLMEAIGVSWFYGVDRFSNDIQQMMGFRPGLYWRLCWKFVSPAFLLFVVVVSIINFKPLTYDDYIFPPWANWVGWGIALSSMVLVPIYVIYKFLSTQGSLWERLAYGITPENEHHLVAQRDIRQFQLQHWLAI

What was measured:
[1] = target: T1, Sodium-dependent noradrenaline transporter (Homo sapiens, UniProt P23975); assay: Inhibition of [3H]norepinephrine reuptake at human NET expressed in HEK cells; type: cell-based, HEK293
[2] = target: T1, Sodium-dependent noradrenaline transporter; assay: biochemical; type: cell-based, HEK293

| Structure (SMILES) | IC50 [1] [µM] | Ki [2] [µM] |
| --- | --- | --- |
| COc1ccc(F)cc1C1CCC(CN)O1 (stereo not drawn) | > 10 |  |
| COc1ccc(F)cc1[C@H]1CC[C@H](CN)O1 (relative stereo) | > 10 |  |
| COc1ccc(F)cc1C[C@H]1CC[C@H](CN)O1 (relative stereo) |  | 24.1 |
